Reference: patent publication US12466849B2, “Anti-viral and anti-tumoral compounds” (YEDA RESEARCH AND DEVELOPMENT CO. LTD, priority 2020, dated 2025)

Tested on: enterovirus-68 (EV-68)

Q: With `CCOC(=O)c1ccc(OCCC2CCN(c3ccc(C)nn3)CC2)cc1` [Pirodavir] as the compound, how does the SI read?
A: 110
